Curated experimental data: vapor pressure values

From the experimental data distributed with OPERA 2.9.

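These are experimental values that the OPERA curators gathered from public databases to train and test their QSAR models. One number stands for a compound and property, with no spread given. Method, purity and exact conditions of the single measurements are not given. A value may pool stereoisomers or salt forms, and the file does not say which form was measured. Unmarked limits or estimates from the upstream databases cannot be ruled out.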

Vapor pressures (log10 mmHg) refer to near room temperature, 15 to 30 °C; higher is more volatile. The databases behind each value are named after "via".

Listed for CCCCCCCCCCCCCCCC[n+]1ccccc1.[Cl-] [Cetylpyridinium chloride]: log vapor pressure -7.385 (log10 mmHg) (via eChemPortal).
Listed for Clc1cccc(-c2ccc(Cl)c(Cl)c2Cl)c1Cl [2,2',3,3',4-Pentachlorobiphenyl]: log vapor pressure -4.824 (log10 mmHg) (via OCHEM).
Listed for CC(C)(C)CC(C)(C)c1cc(-n2nc3ccccc3n2)c(O)c(C(C)(C)c2ccccc2)c1: log vapor pressure -8.518 (log10 mmHg) (via eChemPortal).
Listed for O=c1oc2ccccc2c(O)c1C1CC(c2ccc(-c3ccc(Br)cc3)cc2)Cc2ccccc21 (stereo not given) [Brodifacoum]: log vapor pressure -6.011 (log10 mmHg) (via OCHEM).
Listed for CC(C)CC(C)OP(=S)([S-])OC(C)CC(C)C.CC(C)CC(C)OP(=S)([S-])OC(C)CC(C)C.[Zn+2] (stereo not given): log vapor pressure -4.084 (log10 mmHg) (via eChemPortal).
Listed for CCNC1CCCCC1 [N-Ethyl cyclohexylamine]: log vapor pressure 0.263 (log10 mmHg) (via eChemPortal).
Listed for COc1ccc(CCN)cc1OC [Benzeneethanamine, 3,4-dimethoxy-]: log vapor pressure -3.894 (log10 mmHg) (via eChemPortal).
Listed for CO/C=C(/C(=O)OC)c1ccccc1COc1cccc(C(F)(F)F)n1 [Picoxystrobin]: log vapor pressure -6.27 (log10 mmHg) (via eChemPortal).
Listed for Brc1c(Br)c(Br)c(Br)c(Br)c1Br [Hexabromobenzene]: log vapor pressure -5.249 (log10 mmHg) (via OCHEM).
Listed for CCC(N)c1ccccc1 (stereo not given) [1-Phenylpropan-1-amine]: log vapor pressure -0.702 (log10 mmHg) (via eChemPortal).
Listed for O=S(=O)([O-])CCBr.[Na+] [Ethanesulfonic acid, 2-bromo-, sodium salt]: log vapor pressure -11.99 (log10 mmHg) (via eChemPortal).
Listed for CN[C@@H](C)[C@@H](O)c1ccccc1 [Pseudoephedrine]: log vapor pressure -3.77 (log10 mmHg) (via eChemPortal).
Listed for N#C/N=C1\SCCN1Cc1ccc(Cl)nc1 [Thiacloprid]: log vapor pressure -11.22 (log10 mmHg) (via PubChem).
Listed for C=CC(=O)OCCCCOC(=O)C=C [1,4-Butanediol diacrylate]: log vapor pressure -2.36 (log10 mmHg) (via eChemPortal).
Listed for O=S(=O)(c1ccc(Cl)cc1)c1ccc(Cl)cc1 [4,4'-Dichlorodiphenyl sulfone]: log vapor pressure -6.949 (log10 mmHg) (via eChemPortal).
Listed for Cc1ccc(S(=O)(=O)NCCCCCC(=O)O)cc1 [Hexanoic acid, 6-[[(4-methylphenyl)sulfonyl]amino]-]: log vapor pressure -8.345 (log10 mmHg) (via eChemPortal).
Listed for C[C@H](Oc1ccc(Oc2nc3ccc(Cl)cc3o2)cc1)C(=O)N(C)c1ccccc1F [Metamifop]: log vapor pressure -5.947 (log10 mmHg) (via OCHEM).
Listed for N#C[S-].[K+] [Potassium thiocyanate]: log vapor pressure -10 (log10 mmHg) (via eChemPortal).
Listed for CC(C)(C)[C@@H](O)[C@@H](Cc1ccc(Cl)cc1Cl)n1cncn1 [Diclobutrazol]: log vapor pressure -7.693 (log10 mmHg) (via OCHEM).
Listed for CC(=O)CCC(C)=O [2,5-Hexanedione]: log vapor pressure -0.367 (log10 mmHg) (via PubChem).
Listed for NCC(F)F [Ethylamine, 2,2-difluoro-]: log vapor pressure 2.076 (log10 mmHg) (via eChemPortal).
Listed for C[C@]12CCC(=O)C=C1CC[C@@H]1[C@@H]2CC[C@]2(C)C(=O)CC[C@@H]12 [4-Androstene-3,17-dione]: log vapor pressure -7.824 (log10 mmHg) (via eChemPortal).
Listed for C1CC(COCC2CO2)CCC1COCC1CO1 (stereo not given): log vapor pressure -4.74 (log10 mmHg) (via eChemPortal).
Listed for Clc1cc2c(oc3c(Cl)c(Cl)c(Cl)cc32)c(Cl)c1Cl [2,3,4,6,7,8-Hexachlorodibenzo[b,d]furan]: log vapor pressure -7.425 (log10 mmHg) (via OCHEM).
Listed for CC12CCC(CC1)C(C)(C)[N+]([O-])=[N+]2[O-]: log vapor pressure 0.785 (log10 mmHg) (via eChemPortal).
Listed for Clc1cccc(Cl)c1-c1c(Cl)cccc1Cl: log vapor pressure -3.021 (log10 mmHg) (via OCHEM).
Listed for CCC(C)OP(=S)([S-])OCCCCCC(C)C.CCC(C)OP(=S)([S-])OCCCCCC(C)C.[Zn+2] (stereo not given): log vapor pressure -5.624 (log10 mmHg) (via eChemPortal).
Listed for c1ccc2c(c1)Nc1ccccc1S2 [Phenothiazine]: log vapor pressure -6.314 (log10 mmHg) (via eChemPortal).
Listed for Oc1nc(Cl)c(Cl)cc1Cl [3,5,6-Trichloro-2-pyridinol]: log vapor pressure -2.987 (log10 mmHg) (via OCHEM).
Listed for Oc1ccc(C(c2ccc(O)cc2)(C(F)(F)F)C(F)(F)F)cc1 [Bisphenol AF]: log vapor pressure -7.255 (log10 mmHg) (via eChemPortal).
Listed for O=C1C[NH2+]CC2c3ccccc3CC[NH+]12.O=P([O-])(O)O.O=P([O-])(O)O (stereo not given): log vapor pressure -6.103 (log10 mmHg) (via eChemPortal).
Listed for Cl.Fc1ccc2c(C3CCNCC3)noc2c1: log vapor pressure -4.696 (log10 mmHg) (via eChemPortal).
Listed for CSC(=O)c1c(C(F)F)nc(C(F)(F)F)c(C(=O)SC)c1CC(C)C [Dithiopyr]: log vapor pressure -5.398 (log10 mmHg) (via PubChem).
Listed for CO/N=C(/C(=O)OC)c1ccccc1CO/N=C(\C)c1cccc(C(F)(F)F)c1 [Trifloxystrobin]: log vapor pressure -7.593 (log10 mmHg) (via OCHEM, PubChem).
Listed for Clc1cc2oc3c(Cl)c(Cl)c(Cl)c(Cl)c3c2c(Cl)c1Cl [1,2,3,4,7,8,9-Heptachlorodibenzofuran]: log vapor pressure -8.005 (log10 mmHg) (via OCHEM).
Listed for C#C[C@]1(O)CC[C@H]2[C@@H]3C=CC4=CC(=O)CC[C@@H]4[C@H]3CC[C@@]21C [(17alpha)-17-Hydroxy-19-norpregna-4,6-dien-20-yn-3-one]: log vapor pressure -9.639 (log10 mmHg) (via eChemPortal).
Listed for CCSC(=O)Cl [S-Ethyl chlorothioformic acid]: log vapor pressure 2.045 (log10 mmHg) (via PubChem).
Listed for CC(C)(C1CCC(O)CC1)C1CCC(O)CC1 (stereo not given) [4,4'-Propane-2,2-diyldicyclohexanol]: log vapor pressure -5.18 (log10 mmHg) (via eChemPortal).
Listed for C=CC(=O)N(C)C [N,N-Dimethylacrylamide]: log vapor pressure -0.312 (log10 mmHg) (via eChemPortal).
Listed for Clc1cc2c(cc1Cl)Oc1c(ccc(Cl)c1Cl)O2: log vapor pressure -6.485 (log10 mmHg) (via OCHEM).
Listed for CC(=O)CC(c1ccco1)c1c(O)c2ccccc2oc1=O (stereo not given) [Coumafuryl]: log vapor pressure -10.66 (log10 mmHg) (via OCHEM).
Listed for CCCC(C)O[N+](=O)[O-] (stereo not given) [1-Methylbutyl nitrate]: log vapor pressure 0.71 (log10 mmHg) (via OCHEM).
Listed for CC(C)CC(=O)C1C(=O)c2ccccc2C1=O [2-Isovaleryl-1,3-indanedione]: log vapor pressure -5.162 (log10 mmHg) (via OCHEM).
Listed for CCOc1nc(NC)nc(NC(=O)NS(=O)(=O)c2ccccc2C(=O)OC)n1 [Ethametsulfuron-methyl]: log vapor pressure -8.312 (log10 mmHg) (via eChemPortal).
Listed for NC1CCC(CC2CCC(N)CC2)CC1 (stereo not given) [4,4'-Diaminodicyclohexylmethane]: log vapor pressure -3.87 (log10 mmHg) (via eChemPortal).
Listed for CCC1CCC(=O)O1 (stereo not given) [gamma-Caprolactone]: log vapor pressure 0.255 (log10 mmHg) (via eChemPortal).
Listed for CCOP(=S)(OCC)Oc1cc(-c2ccccc2)on1 [Isoxathion]: log vapor pressure -6.001 (log10 mmHg) (via OCHEM).
Listed for Clc1cc(Cl)c(-c2c(Cl)c(Cl)cc(Cl)c2Cl)c(Cl)c1Cl [2,2',3,3',4,5',6,6'-Octachlorobiphenyl]: log vapor pressure -5.465 (log10 mmHg) (via OCHEM).
Listed for CC(C)(C)C(O)C(Oc1ccc(-c2ccccc2)cc1)n1cncn1 (stereo not given) [Bitertanol]: log vapor pressure -11.39 (log10 mmHg) (via OCHEM).
Listed for O=C(O)CCCC(=O)OOC(=O)CCCC(=O)O [Pentanoic acid, 5,5'-dioxybis[5-oxo-]: log vapor pressure -4.862 (log10 mmHg) (via eChemPortal).
Listed for CCCCP(CCCC)CCCC [Tributylphosphine]: log vapor pressure -1.707 (log10 mmHg) (via eChemPortal).
Listed for Brc1ccc(Oc2ccccc2)c(Br)c1 [2,4-Dibromo-1-phenoxybenzene]: log vapor pressure -3.898 (log10 mmHg) (via OCHEM).
Listed for N#CCCCCCCC#N [Suberonitrile]: log vapor pressure -3.286 (log10 mmHg) (via eChemPortal).
Listed for C#C[C@]1(O)CC[C@H]2[C@@H]3CCC4=CC(=O)CC[C@]4(C)[C@H]3CC[C@@]21C [Ethisterone]: log vapor pressure -13.27 (log10 mmHg) (via eChemPortal).
Listed for Nc1ccc(Cl)cc1Cl [2,4-Dichloroaniline]: log vapor pressure -2.037 (log10 mmHg) (via eChemPortal).